The numbers were not newly measured in paper PMC10388327, “Dual Piperidine-Based Histamine H3 and Sigma-1 Receptor Ligands in the Treatment of Nociceptive and Neuropathic Pain” (Journal of Medicinal Chemistry, 2023), which cites them from elsewhere.

For orientation: Ki means the dissociation constant of the complex between target and ligand, obtained from inhibition or displacement.

This data set has as its target H3R. More on the design: method as in PMID 30359639. The note with it: Figure 1, compounds evaluated in clinical trials; cited from earlier work.

Regarding `Clc1ccc(CCCOCCCN2CCCCC2)cc1` [Pitolisant], the Ki is 1 to 2.4 nM.
